# Measured water solubility values of organic chemicals

From the experimental data distributed with OPERA 2.9.

Water solubility is log10 of mol/L, nominally at 25 °C; higher is more soluble.

{"smiles": "C/C=C/C=C/CCCCCCCO", "name": "Codlelure", "log solubility (log10 mol/L)": "-3.851"}
{"smiles": "COc1ccc(CCC(=O)O)cc1", "log solubility (log10 mol/L)": "-2.21"}
{"smiles": "FCF", "name": "Difluoromethane", "log solubility (log10 mol/L)": "-1.479"}
{"smiles": "O=C(O)c1cccnc1Oc1cccc(C(F)(F)F)c1", "name": "2-[3-(Trifluoromethyl)phenoxy]pyridine-3-carboxylic acid", "log solubility (log10 mol/L)": "-2.839"}
{"smiles": "Clc1cc(Cl)cc(Oc2ccc(Cl)cc2Cl)c1", "log solubility (log10 mol/L)": "-7.14"}
{"smiles": "NS(=O)(=O)c1cc2c(s1)C(=O)CCS2(=O)=O", "log solubility (log10 mol/L)": "-3.671"}
{"smiles": "Nc1ccc(S(=O)(=O)NC2=CC(=O)c3ccccc3C2=O)cc1", "log solubility (log10 mol/L)": "-3.863"}
{"smiles": "CCN(CC)C(C)=O", "name": "Diethylacetamide", "log solubility (log10 mol/L)": "-0.331"}
{"smiles": "O=C1CC2(CCCC2)CC(=O)N1CCCCN1CCN(c2ncccn2)CC1", "name": "Buspirone", "log solubility (log10 mol/L)": "-2.817"}
{"smiles": "N#Cc1ccc2[nH]cc(CCCCN3CCN(c4ccc5oc(C(N)=O)cc5c4)CC3)c2c1", "name": "Vilazodone", "log solubility (log10 mol/L)": "-3.555"}
{"smiles": "Cc1cc(N(CCO)CCO)ccc1N=Nc1ccc([N+](=O)[O-])cc1", "name": "Disperse Red 17", "log solubility (log10 mol/L)": "-5.66"}
{"smiles": "Clc1ccc(Cl)c(Oc2ccc(Cl)c(Cl)c2Cl)c1", "name": "2,2',3,4,5'-Pentachlorodiphenylether", "log solubility (log10 mol/L)": "-7.7"}
{"smiles": "CN(C)C(=O)Nc1cccc(Cl)c1", "name": "Urea, N'-(3-chlorophenyl)-N,N-dimethyl-", "log solubility (log10 mol/L)": "-2.36"}
{"smiles": "C=C1CC[C@H](O)C/C1=C/C=C1\\CCC[C@]2(C)[C@@H]([C@H](C)/C=C/[C@H](C)C(C)C)CC[C@@H]12", "name": "Ergocalciferol", "log solubility (log10 mol/L)": "-3.9"}
{"smiles": "O=C1CCN(c2ccccc2)N1", "name": "1-Phenyl-3-pyrazolidinone", "log solubility (log10 mol/L)": "-1.797"}
{"smiles": "CC(O)CN(N=Cc1ccc([N+](=O)[O-])o1)C(N)=O", "stereo": "centres undefined", "log solubility (log10 mol/L)": "-2.631"}
{"smiles": "CC(Cl)C(C)(C)Cl", "stereo": "centres undefined", "log solubility (log10 mol/L)": "-2.69"}
{"smiles": "Nc1cnc2cncnc2n1", "name": "Pteridin-7-amine", "log solubility (log10 mol/L)": "-2.314"}
{"smiles": "C[C@@H]1CC(=O)NN=C1c1ccc(NN=C(C#N)C#N)cc1", "name": "Levosimendan", "log solubility (log10 mol/L)": "-3.503"}
{"smiles": "CCC(O)c1ccccc1", "stereo": "centres undefined", "name": "1-Phenyl-1-propanol", "log solubility (log10 mol/L)": "-2.34"}
{"smiles": "CCOC(=O)c1ccc([N+](=O)[O-])cc1", "name": "Ethyl 4-nitrobenzoate", "log solubility (log10 mol/L)": "-3"}
{"smiles": "CCCOC(=O)CCOCC", "name": "Propanoic acid, 3-ethoxy-, propyl ester", "log solubility (log10 mol/L)": "-4.02"}
{"smiles": "COc1cc(/C=N\\NC(N)=S)ccc1O[C@@H]1O[C@H](CO)[C@@H](O)[C@H](O)[C@H]1O", "log solubility (log10 mol/L)": "-2.865"}
{"smiles": "O=C(O)Cc1ccc(O)c(O)c1", "name": "3,4-Dihydroxyphenylacetic acid", "log solubility (log10 mol/L)": "-1.624"}
{"smiles": "OC[C@@H](O)[C@@H](O[C@@H]1O[C@H](CO)[C@H](O)[C@H](O)[C@H]1O)[C@H](O)[C@@H](O)CO", "name": "Lactitol", "log solubility (log10 mol/L)": "0.287"}
{"smiles": "O=S(=O)(O)c1ccc(N=Nc2ccc(O)cc2O)cc1", "name": "C.I. Acid Orange 6 parent", "log solubility (log10 mol/L)": "-2.168"}
{"smiles": "CCCCC(CC)(C(=O)O)C(=O)O", "name": "Butyl(ethyl)propanedioic acid", "log solubility (log10 mol/L)": "-0.798"}
{"smiles": "O=c1[nH]c(=O)c2[nH]cnc(=O)c2[nH]1", "log solubility (log10 mol/L)": "-3.911"}
{"smiles": "C=C1/C(=C\\C=C2/CCC[C@]3(C)[C@@H]([C@H](C)CCCC(C)C)CC[C@@H]23)C[C@@H](O)C[C@@H]1O", "name": "Alfacalcidol", "log solubility (log10 mol/L)": "-5.391"}
{"smiles": "CCOC(=O)Nc1ncnc2nc[nH]c12", "name": "Ethyl 1H-purin-6-ylcarbamate", "log solubility (log10 mol/L)": "-2.94"}
{"smiles": "N#Cc1ccc(-c2cnc3ncc(Cc4ccc5ncccc5c4)n3n2)cc1F", "log solubility (log10 mol/L)": "-3.182"}
{"smiles": "O=c1c2ccccc2c(=O)c2c1ccc1c2[nH]c2c3c(=O)c4ccccc4c(=O)c3c3[nH]c4c(ccc5c(=O)c6ccccc6c(=O)c54)c3c12", "name": "Vat brown 1", "log solubility (log10 mol/L)": "-4.51"}
{"smiles": "CCCCC(NC(N)=O)C(=O)O", "stereo": "racemic", "log solubility (log10 mol/L)": "-2.162"}
{"smiles": "O=C(Oc1ccccc1C(=O)O)c1ccccc1O", "name": "Salsalate", "log solubility (log10 mol/L)": "-3.021"}

A selection of 2 entries from above:

{"smiles": "CCOC(=O)c1ccc([N+](=O)[O-])cc1", "name": "Ethyl 4-nitrobenzoate", "log solubility (log10 mol/L)": "-3"}
{"smiles": "CN(C)C(=O)Nc1cccc(Cl)c1", "name": "Urea, N'-(3-chlorophenyl)-N,N-dimethyl-", "log solubility (log10 mol/L)": "-2.36"}

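The numbers are reported measurements, compiled and curated for the OPERA QSAR suite. One number stands for a compound and property, with no spread given. Method and conditions are not stated for these values. Where a salt, mixture or single isomer is drawn, the source does not say that exactly this form was tested. Some entries may be limits or estimates that an upstream database listed as plain numbers.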